Results on 1 molecule are retold here after patent publication US20080045508A1, “SUBSTITUTED AMINOMETHYL BENZAMIDE COMPOUNDS” (priority 2006, published 2008).

Sequences of proteins named here, by UniProt entry; tags and fusion partners are left off.
UniProt P31652, whole entry: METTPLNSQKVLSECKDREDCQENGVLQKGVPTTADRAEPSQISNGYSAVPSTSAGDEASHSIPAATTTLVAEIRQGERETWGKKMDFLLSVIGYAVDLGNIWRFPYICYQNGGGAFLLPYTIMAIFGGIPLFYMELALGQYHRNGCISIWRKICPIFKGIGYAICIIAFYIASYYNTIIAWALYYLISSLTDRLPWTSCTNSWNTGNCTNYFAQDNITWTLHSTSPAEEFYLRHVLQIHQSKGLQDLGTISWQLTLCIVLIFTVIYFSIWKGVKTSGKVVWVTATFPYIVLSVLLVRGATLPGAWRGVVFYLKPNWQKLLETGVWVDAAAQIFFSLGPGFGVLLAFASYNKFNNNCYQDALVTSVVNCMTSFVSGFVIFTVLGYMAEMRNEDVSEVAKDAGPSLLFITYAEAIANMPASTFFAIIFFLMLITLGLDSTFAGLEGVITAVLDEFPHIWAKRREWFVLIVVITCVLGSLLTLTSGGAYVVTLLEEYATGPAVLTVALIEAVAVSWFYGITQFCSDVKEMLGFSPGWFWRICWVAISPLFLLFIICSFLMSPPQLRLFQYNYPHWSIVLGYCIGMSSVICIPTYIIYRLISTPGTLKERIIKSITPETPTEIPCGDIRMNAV
UniProt P31645, whole entry: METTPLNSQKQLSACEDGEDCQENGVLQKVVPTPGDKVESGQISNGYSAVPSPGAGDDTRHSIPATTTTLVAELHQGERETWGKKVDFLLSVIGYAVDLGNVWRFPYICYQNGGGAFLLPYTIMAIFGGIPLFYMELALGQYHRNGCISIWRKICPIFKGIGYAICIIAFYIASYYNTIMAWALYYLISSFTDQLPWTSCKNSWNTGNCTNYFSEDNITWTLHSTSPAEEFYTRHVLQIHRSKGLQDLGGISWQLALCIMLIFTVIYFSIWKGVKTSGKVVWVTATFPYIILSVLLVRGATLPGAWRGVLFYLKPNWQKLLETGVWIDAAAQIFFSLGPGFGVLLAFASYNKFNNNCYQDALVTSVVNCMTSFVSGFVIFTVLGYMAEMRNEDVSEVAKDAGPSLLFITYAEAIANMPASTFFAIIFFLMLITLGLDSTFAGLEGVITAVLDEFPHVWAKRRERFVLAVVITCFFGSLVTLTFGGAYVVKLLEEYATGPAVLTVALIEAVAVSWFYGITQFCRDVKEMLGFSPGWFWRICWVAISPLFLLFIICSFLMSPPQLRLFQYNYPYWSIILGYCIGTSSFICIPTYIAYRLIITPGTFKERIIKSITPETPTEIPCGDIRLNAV

In one assay the target is rat brain SERT (Rattus norvegicus, UniProt P31652). Put plainly: biochemical.
Assay [1] concerns the target human SERT (HEK293 membranes) (Homo sapiens, UniProt P31645). Put plainly: biochemical.

As usually defined, the Ki is a dissociation constant, usually derived from enzyme kinetics or from competition with a known ligand. High values mean weaker binding, low ones tighter binding. As to `CNCc1cc(C(=O)N2CCCN(C3CC3)CC2)ccc1Oc1cccnc1` [Example 4, (4-Cyclopropyl-[1,4]diazepan-1-yl)-[3-methylaminomethyl-4-(pyridin-3-yloxy)-phenyl]-methanone], the Ki at rat brain SERT turned out to be 22 nM; in assay [1], 120 nM.
